Laboratory results: paper PMC10057528, “Trypanosoma cruzi Sirtuin 2 as a Relevant Druggable Target: New Inhibitors Developed by Computer-Aided Drug Design” (Pharmaceuticals, 2023)

Tested on: LLCMK2 cells
Assay: Mammalian cell viability assay (MTT)
Type: cell-based
Details: EC50 LLCMK2 / IC50 T. cruzi amastigote
Description: LLCMK2 cells were maintained in RPMI-1640 medium supplemented with 10% fetal bovine serum (FBS) (Gibco, Carlsbad, CA, USA), penicillin/streptomycin (100 μg.mL^−1 and 0.1 mg.mL^−1, respectively, Sigma-Aldrich, St. Louis, Mo, USA) and 2 mM L-glutamine, and treated every second day. […] All cells were maintained in humidified CO2 at 37 °C. Cells were obtained at the third passage, propagated, and used in experiments between the fourth and fifth passages. Cells were routinely checked for contamination with mycoplasma by PCR. […] The principle of this method, as described by Mosmann et al., consists in measuring the cellular viability of the enzymatic activity of […] of living cells. […] At the end of the period incubation. 50 μL MTT (Sigma-Aldrich Corp. St. Louis, MO, USA) at the concentration of 2 mg.mL^−1. After 4 h incubation, 50 μL DMSO per well was added to dissolve formazan blue crystals. The absorbance was determined at 570 nm using Biotek Synergy HT microplate spectrophotometer. The percentage of cell viability was determined from the following formula (40): Cell Viability (%) = (Treatment Absorbance)/(Control Absorbance negative) × 100.

**Q.** For `O=C(Cn1ccnc1[N+](=O)[O-])NCc1ccccc1` [BZN, benznidazole, reference compound], which “SIama, selectivity index (EC50/IC50(ama))” value is on record?
**A.** 44.8

**Q.** How did the “SIama, selectivity index (EC50/IC50(ama))” value turn out when `O=C(NCc1coc(-c2ccccc2)n1)Nc1ccc(-c2noc(C(F)(F)F)n2)cc1` [CDMS-01] was run?
**A.** 1.77
